Amino acid sequences for entries named in this document (tags omitted). Residues count along the entry.
UniProt Q9WTR4, 1-597: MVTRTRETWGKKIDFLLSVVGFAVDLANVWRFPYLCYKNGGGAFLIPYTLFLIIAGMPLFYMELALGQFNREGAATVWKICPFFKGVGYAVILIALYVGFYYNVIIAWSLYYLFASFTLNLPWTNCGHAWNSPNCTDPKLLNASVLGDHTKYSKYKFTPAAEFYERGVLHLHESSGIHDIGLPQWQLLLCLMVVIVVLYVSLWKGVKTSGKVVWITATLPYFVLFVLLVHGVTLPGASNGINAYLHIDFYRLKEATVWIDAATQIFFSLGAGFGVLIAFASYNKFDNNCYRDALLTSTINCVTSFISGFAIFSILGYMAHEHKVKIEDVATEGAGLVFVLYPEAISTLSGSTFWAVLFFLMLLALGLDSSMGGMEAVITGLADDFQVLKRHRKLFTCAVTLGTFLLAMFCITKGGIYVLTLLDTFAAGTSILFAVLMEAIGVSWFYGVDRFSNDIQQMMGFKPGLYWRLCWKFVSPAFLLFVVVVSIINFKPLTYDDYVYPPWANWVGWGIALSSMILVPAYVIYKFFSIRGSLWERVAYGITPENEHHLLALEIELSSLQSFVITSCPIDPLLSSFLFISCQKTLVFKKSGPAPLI

What follows are compounds tested against T1, NET (Rattus norvegicus, UniProt Q9WTR4) (assay: In vitro determination of NET reuptake inhibition ([3H]Nixosetine binding, rat brain cortex)). Details: NET Reuptake Inhibition.
T1 construct: Cortex from rat brain was collected and homogenised; from tissue; host or cells: rat brain cortex
Description: Cortex from rat brain was collected and homogenised using an Ultra-Turrax T25 and a Dual homogeniser in ice-cold homogenising buffer containing Tris, NaCl and KCl (50 mM, 120 mM and 5 mM, respectively, pH 7.4) prior to dilution to an appropriate protein concentration optimised for specific and non-specific binding. […] Membrane-bound activity was detected by filtration through a Packard Filtermate harvester onto GF/B Unifilterplates, washed with ice-cold Tris-HCl buffer, containing NaCl and KCl (50 mM, 120 mM and 4 mM; pH 7.4; 6×0.5 ml). Filters were allowed to dry for 24 h before adding scintillation fluid. Scintillation fluid was allowed to saturate filters for 24 h before counting in a Topcount scintillation counter. Percentage specific bound and competition binding curves were calculated using S-Plus software (Insightful).
Compound `CN(C[C@H]1CC2=C(O1)c1cc(F)ccc1Cc1ccccc12)C(=O)Oc1ccccc1` [Compound 111] has an IC50 of over 10000 nM.

Same assay, conditions: read-out: NET Reuptake Inhibition (converted)
For `CN(CC(=O)Nc1ccccc1)C[C@H]1CC2=C(O1)c1cc(F)ccc1Cc1ccccc12` [Compound 118], the IC50 was 6310 nM. For `COc1ccc(C(=O)N2CCN(CC3CC4=C(O3)c3cc(F)ccc3Oc3ccccc34)CC2)cc1` (stereo not drawn) [Compound 74], the IC50 was 794 nM. `COc1ccc(NC(=O)N2CCN(CC3CC4=C(O3)c3cc(F)ccc3Oc3ccccc34)CC2)cc1` (stereo not drawn) [Compound 90] showed an IC50 of 2000 nM. For `CS(=O)(=O)N1CCN(CC2CC3=C(O2)c2cc(F)ccc2Oc2ccccc23)CC1` (stereo not drawn) [Compound 45], the IC50 was 1000 nM. Compound `CCCC(=O)N1CCN(CC2CC3=C(O2)c2cc(F)ccc2Oc2ccccc23)CC1` (stereo not drawn) [Compound 56] has an IC50 of 1580 nM. With `CNC(=N)CN(C)CC1CC2=C(O1)c1cc(F)ccc1Cc1ccccc12` (stereo not drawn) [Compound 138] the IC50 was 794 nM. `CNCC1CC2=C(O1)c1cc(F)ccc1Sc1ccccc12` (single isomer, unassigned) [Compound 13] gave an IC50 of 6.31 nM. `COc1ccc(NC(=O)N2CCN(CC3CC4=C(O3)c3cc(F)ccc3Cc3ccccc34)CC2)cc1` (stereo not drawn) [Compound 89] showed an IC50 of 6310 nM. `CCNCC1CC2=C(O1)c1cc(F)ccc1Sc1ccccc12` (stereo not drawn) [Compound 18] showed an IC50 of 3.16 nM. `O=C(C1CC1)N1CCN(CC2CC3=C(O2)c2cc(F)ccc2Cc2ccccc23)CC1` (stereo not drawn) [Compound 57] was tested, and the IC50 was 5010 nM. With `OCCN1CCN(CC2CC3=C(O2)c2cc(F)ccc2Cc2ccccc23)CC1` (stereo not drawn) [Compound 41] the IC50 was 7940 nM. `O=C(Nc1ccccc1)N1CCN(CC2CC3=C(O2)c2cc(F)ccc2Cc2ccccc23)CC1` (stereo not drawn) [Compound 83] showed an IC50 of 5010 nM. Work on `CN(CCO)CC1CC2=C(O1)c1cc(F)ccc1Oc1ccccc12` (stereo not drawn) [Compound 32] yielded an IC50 of 200 nM. Work on `CNCC1CC2=C(O1)c1cc(Br)ccc1Cc1ccccc12` (stereo not drawn) [Compound 5] yielded an IC50 of 251 nM. `OC1CCCN(CC2CC3=C(O2)c2cc(F)ccc2Cc2ccccc23)C1` (stereo not drawn) [Compound 37] was tested, and the IC50 was 3980 nM. Work on `O=S(=O)(Cc1ccccc1)N1CCN(CC2CC3=C(O2)c2cc(F)ccc2Oc2ccccc23)CC1` (stereo not drawn) [Compound 52] yielded an IC50 of 1000 nM. With `CN(CC(N)=O)C[C@H]1CC2=C(O1)c1cc(F)ccc1Cc1ccccc12` [Compound 115] the IC50 was 501 nM. In the case of `OC1CCN(CC2CC3=C(O2)c2cc(F)ccc2Cc2ccccc23)C1` (stereo not drawn) [Compound 33], the IC50 is reported as 1260 nM. `O=C(NC1CCCCC1)N1CCN(CC2CC3=C(O2)c2cc(F)ccc2Oc2ccccc23)CC1` (stereo not drawn) [Compound 80] was tested, and the IC50 was 1580 nM. For `CCOC(=O)CNC(=O)N1CCN(CC2CC3=C(O2)c2cc(F)ccc2Oc2ccccc23)CC1` (stereo not drawn) [Compound 82], the IC50 was 2000 nM. `CN(C)C(=O)N1CCN(CC2CC3=C(O2)c2cc(F)ccc2Oc2ccccc23)CC1` (stereo not drawn) [Compound 76] showed an IC50 of 2000 nM. With `COc1cc2c(cc1OC)CN(CC1CC3=C(O1)c1cc(F)ccc1Cc1ccccc13)CC2` (stereo not drawn) [Compound 40] the IC50 was 3980 nM. In the case of `OCCC1CCN(CC2CC3=C(O2)c2cc(F)ccc2Cc2ccccc23)CC1` (stereo not drawn) [Compound 38], the IC50 is reported as 3980 nM. Work on `O=C(Nc1ccccc1)N1CCN(CC2CC3=C(O2)c2cc(F)ccc2Oc2ccccc23)CC1` (stereo not drawn) [Compound 84] yielded an IC50 of 1580 nM. `CN(CC(=O)O)C[C@H]1CC2=C(O1)c1cc(F)ccc1Cc1ccccc12` [Compound 107] showed an IC50 of 1580 nM. For `COc1ccccc1NC(=O)CN(C)C[C@H]1CC2=C(O1)c1cc(F)ccc1Cc1ccccc12` [Compound 119], the IC50 was 5010 nM. Work on `CN(CC(=O)c1ccccc1)C[C@H]1CC2=C(O1)c1cc(F)ccc1Cc1ccccc12` [Compound 114] yielded an IC50 of 100 nM. `COc1ccccc1NC[C@@H]1CC2=C(O1)c1cc(F)ccc1Cc1ccccc12` [Compound 106] gave an IC50 of over 10000 nM. For `CN(Cc1nnn[nH]1)C[C@H]1CC2=C(O1)c1cc(F)ccc1Cc1ccccc12` [Compound 125], the IC50 was 79.4 nM. With `OCCNCC1CC2=C(O1)c1cc(F)ccc1Cc1ccccc12` (stereo not drawn) [Compound 19] the IC50 was 39.8 nM. In the case of `CCOC(=O)N1CCN(CC2CC3=C(O2)c2cc(F)ccc2Cc2ccccc23)CC1` (stereo not drawn) [Compound 61], the IC50 is reported as 3160 nM. `OCCN1CCN(CC2CC3=C(O2)c2cc(F)ccc2Sc2ccccc23)CC1` (stereo not drawn) [Compound 42] was tested, and the IC50 was over 10000 nM.
